# Source: PubChem BioAssay AID1480 (NMMLSC, 2009)
# The entries are a selection whose mix differs from that of the whole data set. Some tests of the compounds listed are not included; inactive here does not mean inactive elsewhere. The source made the active and inactive calls.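 Rule for the calls: active = fluorescence in ABCG2-expressing cells above the plate's control-well mean plus 3 SD (cut at about 15 in these data); inactive = the rest.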
# Experiment: green-channel fluorescence of compounds in IgMXP3 cells – cell-based, 488/530 nm, flow cytometry, artefact control for ABC transporter inhibitor project, confirmation (AID 1480)
# Details: compound autofluorescence 488/530 nm, at 6.6 µM, hits give high values
# In short: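 Material: ABCG2-expressing drug-resistant IgMXP3 cells | Input: 3 million cells/mL final | Medium: JC-1 kit assay buffer | Probe or stimulus: no JC-1 substrate | Times: Cell–compound exposure 10 min, 25 °C, end-over-end rotation | Measured by: High-throughput flow cytometry, green FL1 channel fluorescence | Evaluation: Compound-well median cell fluorescence minus DMSO-well median fluorescence | Benchmarks: DMSO-only wells as cell background reference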
structure (smiles),measurement,value
CN(C)c1cccc(C(=O)NCC2(N(C)C)CCCCC2)c1,fluorescence,inactive: -1.19
